Measured values published in ChEMBL document CHEMBL1153667, “6N-Cinnamoyl--naltrexamine and its p-nitro derivative. High efficacy -opioid agonists with weak antagonist actions” (Bioorg Med Chem Lett, 1996).

Amino acid sequences for entries named in this document (tags omitted).
UniProt P97266, whole entry, looked up: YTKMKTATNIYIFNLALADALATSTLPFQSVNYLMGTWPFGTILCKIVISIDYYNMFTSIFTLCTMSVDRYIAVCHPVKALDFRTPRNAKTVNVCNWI

Target: Mu-type opioid receptor (Cavia porcellus, UniProt P97266)
Experiment: Compound was evaluated for binding affinity against [3H]- DAMGO labeled mu opioid receptor in guinea-pig brain homogenate.

COC(=O)/C=C/C(=O)N[C@@H]1CC[C@@]2(O)[C@H]3Cc4ccc(O)c5c4[C@@]2(CCN3CC2CC2)[C@H]1O5
Ki: 400 pM
